From ChEMBL document CHEMBL1151751, “Bisphosphonate inhibition of a Plasmodium farnesyl diphosphate synthase and a general method for predicting cell-based activity from enzyme data” (J Med Chem, 2008)

Experiment: Inhibition of Plasmodium vivax FPPS expressed in Escherichia coli BL21 by spectrophotometric assay
Method in brief: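 Recombinant enzyme from lysed cells (lysozyme, nuclease, protease inhibitors), purified on Ni-NTA resin. The GPP + IPP condensation was followed at room temperature by a continuous spectrophotometric phosphate-release assay in 25 mM Hepes, 2.5 mM MgCl₂, pH 7.4. Inhibitors were preincubated with enzyme for 30 min at room temperature. IC50 was obtained by fitting the dose–response curve.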

Row | Structure (SMILES) | IC50 [nM] | pIC50
1 | O.O=P(O)(O)C(O)(Cn1ccnc1)P(=O)(O)O [ZOLEDRONIC ACID] | 790 | –
2 | O=P([O-])(O)C(O)(CC1=[n+]2ccccc2=NC1)P(=O)(O)O (stereo not drawn) | 640 | 6.2
